Test results: ChEMBL document CHEMBL1154119, “Rational design, synthesis and characterization of potent, non-peptidic Smac mimics/XIAP inhibitors as proapoptotic agents for cancer therapy” (Bioorg Med Chem, 2009)

Chains of the proteins cited; added tags and fusions are not shown.
UniProt P98170, whole entry: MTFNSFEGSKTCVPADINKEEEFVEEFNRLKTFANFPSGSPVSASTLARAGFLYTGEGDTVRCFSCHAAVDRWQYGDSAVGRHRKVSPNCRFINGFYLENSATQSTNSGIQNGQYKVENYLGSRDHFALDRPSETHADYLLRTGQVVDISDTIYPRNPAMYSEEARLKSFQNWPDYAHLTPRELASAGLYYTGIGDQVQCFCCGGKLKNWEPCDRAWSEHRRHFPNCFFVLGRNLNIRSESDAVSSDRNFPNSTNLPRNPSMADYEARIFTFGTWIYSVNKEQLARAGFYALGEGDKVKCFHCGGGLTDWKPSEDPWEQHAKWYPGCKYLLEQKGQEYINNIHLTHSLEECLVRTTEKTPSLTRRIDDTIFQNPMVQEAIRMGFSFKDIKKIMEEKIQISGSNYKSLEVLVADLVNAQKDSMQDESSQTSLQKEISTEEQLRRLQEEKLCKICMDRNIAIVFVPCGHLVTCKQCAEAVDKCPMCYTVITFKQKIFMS

Biological target: E3 ubiquitin-protein ligase XIAP (Homo sapiens, UniProt P98170)

- IC50: 360 nM
Compound: CC[C@H](N)C(=O)N[C@H]1CCC[C@H]2CC[C@@H](C(=O)NC(c3ccccc3)c3ccccc3)N2C1=O
